Each structure is given as a SMILES string. Only a part is listed here, and it is no random draw. Some tests of the compounds listed are not included; inactive here does not mean inactive elsewhere. Active and inactive are the calls of the source. The call rests on the fitted dose curve; in most records, active means well fitted curve in the direction sought with a large enough effect; inconclusive means small, poorly fitted or top-dose-only effect, or effect the other way, or another doubt; inactive means no such curve, though single readings can be large or run the other way.

Protein sequences, listed by entry. Tags and fused reporters are not part of them.
UniProt P06280, whole entry: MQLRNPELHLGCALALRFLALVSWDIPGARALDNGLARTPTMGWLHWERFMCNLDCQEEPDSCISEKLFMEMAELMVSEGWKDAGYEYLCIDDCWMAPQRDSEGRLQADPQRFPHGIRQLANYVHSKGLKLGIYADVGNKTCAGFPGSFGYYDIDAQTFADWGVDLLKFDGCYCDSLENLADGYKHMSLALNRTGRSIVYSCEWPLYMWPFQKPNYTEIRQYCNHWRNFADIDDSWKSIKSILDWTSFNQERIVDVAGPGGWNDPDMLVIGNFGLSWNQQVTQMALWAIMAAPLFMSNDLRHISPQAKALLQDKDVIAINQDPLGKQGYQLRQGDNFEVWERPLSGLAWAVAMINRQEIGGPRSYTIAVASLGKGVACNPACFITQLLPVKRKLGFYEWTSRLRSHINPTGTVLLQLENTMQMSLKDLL

For this experiment, the target named is Alpha-galactosidase A (Homo sapiens) (UniProt P06280). As to the kind of experiment: qHTS Assay for Inhibitors of Human alpha-Galactosidase at pH 4.5.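 Further: 0% = full activity with enzyme and -100% = basal without enzyme.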 The following applies: purified enzyme, 4-MU-alpha-Gal fluorescence; at 105 µM (top of the series). The source says: NIH Chemical Genomics Center [NCGC]
NIH Molecular Libraries Probe Production centers Network [MLPCN]
Assay Submitter (PI): Wei Zheng
Alpha-galactosidase is a homodimeric glycoprotein that hydrolyzes the terminal alpha-galactosyl moieties from glycolipids and glycoproteins. Deficiency of this enzyme results in Fabry Disease with progressive accumulation of globotriaosylceramide and other glycosphingolipids in vascular endothelial cells that causes renal failure, myocardial infarction and stroke, and premature death in patients. It has been reported that the improper folding and trafficking of alpha-galactosidase resulting from the genetic mutations may account for a significant numbers of Fabry patients. […] We optimized this alpha-galactosidase assay in 1536-well plate format for identifying the novel small molecule inhibitors with the structures other than the sugar analogs in order to develop the new pharmacological chaperones. Although this assay has the same protocol as PubChem AID 992, this is a separate project and, therefore, is published as a separate assay
NCGC Assay Protocol Summary:
This is a fluorogenic enzyme assay with 4-Methylumbelliferyl alpha-D-galactopyranoside as the substrate and human […] as the enzyme preparation. Upon the hydrolysis of this fluorogenic substrate, the resulting product, […]. 4-Methyllumbelliferone, can be excited at 365 nm and emits at 440 nm. This fluorescence which can be detected by a standard fluorescence plate reader. Data were normalized to the controls for basal activity (without enzyme) and 100% activity (with enzyme). In the AC50 values were determined from concentration-response data modeled with the standard Hill equation.
Assay buffer: 50 mM citric acid (titrated with potassium phosphate to pH 4.5), 0.005% Tween-20, pH 4.5. (pH 4.5 is an optimal condition for this enzyme assay)
1536-well assay protocol for the human alpha-galactosidase:
(1) Add 2 ul/well of enzyme (12 nM final)
(2) Add 23 nL compounds in DMSO solution. The final titration was 0.7 nM to 77 uM.
(3) Add 1 ul of substrate (400 uM final)
(4) Incubate at room temperature for 20 min.
(5) Add 2 ul stop solution (1M NaOH and 1M Glycine mixture, pH 10)
(6) Detect the assay plate in a ViewLux plate reader (PerkinElmer) with Ex=365 nm and Em=440nm.
Keywords: MLSMR, MLPCN, NIH Roadmap, qHTS, NCGC, : Alpha-galactosidase, Fabry Disease, pharmacological chaperone, chaperone therapy
As for `C=CCN1CCN(CCOC(=O)C(O)(c2ccccc2)c2ccccc2)CC1`, the activity change, negative = inhibition is inactive: 4.81%.
Take `CCN1CCCC(OC(=O)C2(O)c3ccccc3C=Cc3ccccc32)C1` (stereo unspecified): the activity change, negative = inhibition was inactive: 1.24%.
The value for `CN(C)C1CCCC1OC(=O)C(O)(c1ccccc1)c1ccccc1` (stereo unspecified) was inactive: 0.64%; that for `Cc1ccccc1C(=O)NCC1(N2CCCCC2)CCCCC1` was inactive: -6.99%.
Take `CC(C)N1C(=O)CC2(CCN(CCOC(=O)C(O)(c3ccccc3)c3ccccc3)CC2)C1=O`: the activity change, negative = inhibition is inactive: -1.35%.
For the compound `CCN(CC)CC(C)C(C)OC(=O)C(O)(c1ccccc1)c1ccccc1` (stereo unspecified), the activity change, negative = inhibition is inactive: -6.47%.
In the case of `O=C(NCC1(N2CCCCC2)CCCCC1)c1cc([N+](=O)[O-])ccc1Cl`, the activity change, negative = inhibition is inactive: -11.7%.
Turning to `COc1ccc(Br)c(C(=O)NCC2(N3CCCCC3)CCCCC2)c1`, the activity change, negative = inhibition was inactive: -5.42%.
Consider `CN(C)c1cccc(C(=O)NCC2(N(C)C)CCCCC2)c1`, for which the activity change, negative = inhibition was inactive: -1.89%.
Turning to `O=C(OC1CN2CCC1CC2)C(CO)(c1ccccc1)c1ccccc1` (stereo unspecified), the activity change, negative = inhibition is inactive: 8.31%.
Take `COc1cccc(C(=O)NCC2(N3CCCCC3)CCCCC2)c1`: the activity change, negative = inhibition is inactive: -28%.

For the origin of these results see PubChem BioAssay AID1467 (National Center for Advancing Translational Sciences (NCATS), 2008).
